Target: T1, PI3K-γ (Homo sapiens, UniProt P48736)
T1 construct: purchased BPS Bioscience, Inc 79803
Assay: PI3Kγ (p110γ/PIK3R5) enzyme inhibition assay kit
Assay type: biochemical
Conditions: means ± sd, n = 3; read-out: IC50 (µM) PI3K-γ Isoform
Excerpt: Accumulating evidence highlighted that PI3K signaling pathway upregulation is highly implicated in breast cancer development and disease progression as well as resistance to hormones and cytotoxic therapy. Therefore, it is essential to elucidate the effect of the novel compound, VIIb, on the PI3K/Akt signaling pathway by using in vitro PI3K class 1A enzyme inhibition assay conducted on PI3K-α and PI3K-γ isoforms as well as an Akt-1 enzyme inhibition assay. […] Furthermore, targeting the PI3K-γ isoform in breast cancer could contribute to enhancing the anti-tumor immunity.
The in vitro inhibition of PI3K and Akt kinase activities by VIIb was assessed using a PI3Kα (p110α/p85) assay kit (Catalog #79781; BPS Bioscience, Inc, San Diego, CA, USA), PI3Kγ (p110γ/PIK3R5) assay kit (Catalog #79803; BPS Bioscience, Inc, San Diego, CA, USA), and Akt Kinase Activity assay kit (ab139436; Abcam, Cambridge, UK) following the manufacturer’s instructions as described previously. The results were expressed as IC50 values using dose–response curves and linear regression equations. LY294002 compound was taken as the reference compound. The values were means ± sd; n = 3.

Chains of the proteins cited; added tags and fusions are not shown. Lines headed by an entry give the natural chain unless they say otherwise; changes in a name come on top.
UniProt P48736: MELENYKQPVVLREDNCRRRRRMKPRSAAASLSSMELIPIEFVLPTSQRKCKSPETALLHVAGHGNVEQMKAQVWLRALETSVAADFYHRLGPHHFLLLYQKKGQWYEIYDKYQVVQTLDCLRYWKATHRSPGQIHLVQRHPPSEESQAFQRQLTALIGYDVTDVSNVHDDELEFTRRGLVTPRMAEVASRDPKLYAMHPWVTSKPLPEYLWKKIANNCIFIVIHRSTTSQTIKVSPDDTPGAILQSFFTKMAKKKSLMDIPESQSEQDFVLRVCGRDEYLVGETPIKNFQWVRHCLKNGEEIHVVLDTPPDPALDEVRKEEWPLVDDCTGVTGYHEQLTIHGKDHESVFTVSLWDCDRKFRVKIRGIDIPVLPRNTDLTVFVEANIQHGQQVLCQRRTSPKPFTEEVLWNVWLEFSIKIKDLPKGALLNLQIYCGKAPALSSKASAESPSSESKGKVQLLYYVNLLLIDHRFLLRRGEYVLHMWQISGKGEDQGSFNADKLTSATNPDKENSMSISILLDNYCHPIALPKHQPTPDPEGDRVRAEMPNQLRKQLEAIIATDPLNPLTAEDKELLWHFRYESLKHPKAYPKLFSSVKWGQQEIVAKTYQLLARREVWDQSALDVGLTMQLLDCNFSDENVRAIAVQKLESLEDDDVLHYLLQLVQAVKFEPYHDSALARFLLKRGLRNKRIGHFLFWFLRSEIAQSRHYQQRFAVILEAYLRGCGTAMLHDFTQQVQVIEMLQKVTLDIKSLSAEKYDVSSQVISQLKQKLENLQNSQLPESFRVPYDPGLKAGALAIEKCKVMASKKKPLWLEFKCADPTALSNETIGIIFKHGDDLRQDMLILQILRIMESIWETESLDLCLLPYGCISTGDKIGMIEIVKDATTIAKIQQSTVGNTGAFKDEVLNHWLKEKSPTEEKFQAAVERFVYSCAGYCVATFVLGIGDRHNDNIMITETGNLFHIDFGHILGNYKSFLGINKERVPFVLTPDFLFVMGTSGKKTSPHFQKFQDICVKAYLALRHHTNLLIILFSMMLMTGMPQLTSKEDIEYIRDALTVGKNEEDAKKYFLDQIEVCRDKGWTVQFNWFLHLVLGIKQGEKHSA

IC50: 11.5 ± 0.62 µM
SMILES: O=c1cc(N2CCOCC2)oc2c(-c3ccccc3)cccc12 [LY294002, reference compound]
